The text below walks through data of patent US6608083B1, “Quinoline derivatives(2)” (SmithKline Beecham Farmaceutici S.p.A, priority 1994, dated 2003).

Chains of the proteins cited; added tags and fusions are not shown.
UniProt P30098, whole entry: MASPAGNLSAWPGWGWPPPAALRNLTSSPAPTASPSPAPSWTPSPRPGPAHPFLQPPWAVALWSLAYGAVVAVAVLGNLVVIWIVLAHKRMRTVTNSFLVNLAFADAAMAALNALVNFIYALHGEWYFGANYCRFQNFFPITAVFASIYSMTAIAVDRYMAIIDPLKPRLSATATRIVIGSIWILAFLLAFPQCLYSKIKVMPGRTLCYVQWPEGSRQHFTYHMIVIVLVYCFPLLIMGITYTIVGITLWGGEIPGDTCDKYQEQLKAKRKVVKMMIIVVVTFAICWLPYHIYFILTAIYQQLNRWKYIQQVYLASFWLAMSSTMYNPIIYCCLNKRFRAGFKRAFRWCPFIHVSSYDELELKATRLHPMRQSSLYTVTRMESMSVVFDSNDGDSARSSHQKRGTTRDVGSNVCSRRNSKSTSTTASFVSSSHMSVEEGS

The assay deals with NK3 receptor (Cavia porcellus, UniProt P30098). Briefly: Binding: displacement of [3H]-Senktide / [125I]-[Me-Phe7]-NKB, guinea-pig cortex membranes.

For `CC[C@H](NC(=O)c1c(O)c(-c2ccccc2)nc2ccccc12)c1ccccc1` [Example 85, (S)-N-(α-ethylbenzyl)-3-hydroxy-2-phenylquinoline-4-carboxamide], the affinity, expressed as Ki, was 4.8 nM.
